Data reported in patent US12528818B2, “Compositions and methods for inhibition of RAS” (Leidos Biomedical Research, Inc., priority 2021, dated 2026).

Key:
[1] = target: GDP-loaded KRAS4b (amino acids 1-169) G12C/C118S protein (Homo sapiens, UniProt P01116, C118S/G12C); assay: Covalent cysteine 12 modification by MALDI-TOF MS, GDP-loaded KRAS G12C; assay type: biochemical; details: 15 minutes reaction time, compound 95 or later using 1 μM proteins
[2] = target: GppNHp-loaded KRAS4b (amino acids 1-169) G12C/C118S protein (Homo sapiens, UniProt P01116, C118S/G12C); assay: Covalent cysteine 12 modification by MALDI-TOF MS, GppNHp-loaded KRAS G12C; assay type: biochemical; details: 15 minutes reaction time, compound 95 or later using 1 μM proteins
[3] = target: Avi-KRAS G12C (1-169) GppNHp/RAF1 RBD-3xFLAG (52-151) (Homo sapiens, UniProt P01116, G12C); assay: biochemical; details: Raf1-GppNHp-KRAS G12C disruption, Raf1 RBD-KRAS G12C-GppNHp disruption assay IC50

| Compound | GDP-KRAS G12C percent of modification [1] | GppNHp-KRAS G12C percent of modification [2] | IC50 [3] [nM] |
| --- | --- | --- | --- |
| C=CC(=O)N1CCN(c2nc(OC[C@@H]3CCCN3C)nc3c(F)c(-c4ccc(F)c5sc(N)nc45)c(C4CC4)cc23)CC1 [Compound 176] | C (10%≤percent of modification <50%) | D (percent of modification <10%) | 500 to 5000 |
| C=CC(=O)N1CCN(c2nc(OC[C@]34CCCN3C[C@H](F)C4)nc3c(F)c(-c4ccc(F)c5sc(N)nc45)c(C(F)(F)F)cc23)[C@@H](C)C1 [Compound 177] | A (percent of modification ≥70%) | C (10%≤percent of modification <50%) | < 500 |
| C=CC(=O)N1CC(N(c2nc(OC[C@]34CCCN3C[C@H](F)C4)nc3c(F)c(-c4ccc(F)c5sc(N)nc45)c(C(F)(F)F)cc23)C2CC2)C1 [Compound 178, 1-(3-((7-(2-amino-7-fluorobenzo[d]thiazol-4-yl)-8-fluoro-2-(((2R,7aR)-2-fluorotetrahydro-1H-pyrrolizin-7a(5H)-yl)methoxy)-6-(trifluoromethyl)quinazolin-4-yl)(cyclopropyl)amino)azetidin-1-yl)prop-2-en-1-one] | C (10%≤percent of modification <50%) | D (percent of modification <10%) | 500 to 5000 |
| CC#CC(=O)N1CC[C@@H]2[C@H]1CN2c1nc(OCC23CCCN2CCC3)nc2c(F)c(-c3ccc(F)c4sc(N)nc34)c(C(F)(F)F)cc12 [Compound 180] | C (10%≤percent of modification <50%) | D (percent of modification <10%) | 500 to 5000 |
| C=CC(=O)N1CC(N(C)c2nc(OC[C@@H]3CC(F)(F)CN3C)nc3c(F)c(-c4ccc(F)c5sc(N)nc45)c(C(F)(F)F)cc23)C1 [Compound 181] | B (50≤percent of modification <70%) | D (percent of modification <10%) | 500 to 5000 |
| C=CC(=O)N1CCN(c2nc(OCC3CCCN3C)nc3c(F)c(-c4ccc(F)c5sc(N)nc45)c(C4(C#N)CCC4)cc23)CC1 (stereo not drawn) [Compound 183] | C (10%≤percent of modification <50%) | D (percent of modification <10%) | 5000 to 20000 |
| C=CC(=O)N1CC[C@H](N(C)c2nc(OC[C@@]34CCCN3C[C@H](F)C4)nc3c(F)c(-c4ccc(F)c5sc(N)nc45)c(Cl)cc23)C1 [Compound 185] | C (10%≤percent of modification <50%) | C (10%≤percent of modification <50%) | < 500 |
| C=C(F)C(=O)N1CCN(c2nc(OC[C@@]34CCCN3C[C@H](F)C4)nc3c(F)c(-c4ccc(F)c5sc(N)nc45)c(C(F)(F)F)cc23)CC1 [Compound 186] | B (50≤percent of modification <70%) | D (percent of modification <10%) | 5000 to 20000 |
| C=CC(=O)N1CC(N(C)c2nc(OCC34CCCN3CC(F)(F)C4)nc3c(F)c(-c4ccc(F)c5sc(N)nc45)c(C(F)(F)F)cc23)C1 (stereo not drawn) [Compound 187] | C (10%≤percent of modification <50%) | D (percent of modification <10%) | 500 to 5000 |
| C=CC(=O)N1CC[C@H](N(C)c2nc(OC[C@@]34CCCN3C[C@H](F)C4)nc3c(F)c(-c4ccc(F)c5sc(N)nc45)c(C(F)(F)F)cc23)C1 [Compound 188] | C (10%≤percent of modification <50%) | C (10%≤percent of modification <50%) | < 500 |
| C=CC(=O)N1CCN(c2nc(OC[C@@]34CCCN3C[C@H](F)C4)nc3c(F)c(-c4ccc(F)c5sc(N)nc45)c(C(F)(F)F)cc23)[C@@H](C)C1 [Compound 189] | B (50≤percent of modification <70%) | C (10%≤percent of modification <50%) | < 500 |
| C=CC(=O)N1CCN(c2nc(OC[C@]34CCCN3C[C@H](F)C4)nc3c(F)c(-c4ccc(F)c5sc(N)nc45)c(C(F)(F)F)cc23)C[C@H]1C [Compound 190] | A (percent of modification ≥70%) | C (10%≤percent of modification <50%) | < 500 |
| C=C(F)C(=O)N1CCN(c2nc(OC[C@]34CCCN3C[C@H](F)C4)nc3c(F)c(-c4ccc(F)c5sc(N)nc45)c(C(F)(F)F)cc23)C[C@H]1C [Compound 191] | A (percent of modification ≥70%) | D (percent of modification <10%) | 5000 to 20000 |
| C=CC(=O)N1CCN(c2nc(OCC34CCCN3CC(F)(F)C4)nc3c(F)c(-c4ccc(F)c5sc(N)nc45)c(C(F)(F)F)cc23)CC1 (stereo not drawn) [Compound 192] | C (10%≤percent of modification <50%) | D (percent of modification <10%) | 500 to 5000 |
| CC#CC(=O)N1CCN(c2nc(OCC34CCCN3CC(F)(F)C4)nc3c(F)c(-c4ccc(F)c5sc(N)nc45)c(C(F)(F)F)cc23)CC1 (stereo not drawn) [Compound 193] | C (10%≤percent of modification <50%) | D (percent of modification <10%) | > 20000 |
| C=CC(=O)N1CCN(c2nc(OC[C@@]34CCCN3C[C@H](F)C4)nc3c(F)c(-c4ccc(F)c5sc(N)nc45)c(C(F)(F)F)cc23)CC1 [Compound 194] | A (percent of modification ≥70%) | C (10%≤percent of modification <50%) | < 500 |
| C=CC(=O)N1CC[C@@H](N(C)c2nc(OC[C@@]34CCCN3C[C@H](F)C4)nc3c(F)c(-c4ccc(F)c5sc(N)nc45)c(Cl)cc23)C1 [Compound 195, 1-((3R)-3-((7-(2-amino-7-fluorobenzo[d]thiazol-4-yl)-6-chloro-8-fluoro-2-(((2R,7aS)-2-fluorotetrahydro-1H-pyrrolizin-7a(5H)-yl)methoxy)quinazolin-4-yl)(methyl)amino)pyrrolidin-1-yl)prop-2-en-1-one] | C (10%≤percent of modification <50%) | C (10%≤percent of modification <50%) | < 500 |
| C=CC(=O)N1CCN(c2nc(OC[C@]34CCCN3C[C@H](F)C4)nc3c(F)c(-c4ccc(F)c5sc(N)nc45)c(C(F)(F)F)cc23)[C@H](C)C1 [Compound 196] | A (percent of modification ≥70%) | D (percent of modification <10%) | 500 to 5000 |
| C=CC(=O)N1C[C@@H](Nc2nc(OCC34CCCN3CCC4)nc3c(F)c(-c4ccc(F)c5sc(N)nc45)c(Cl)cc23)[C@H]1C [Compound 197] | C (10%≤percent of modification <50%) | C (10%≤percent of modification <50%) | < 500 |
| C=C(F)C(=O)N1CCN(c2nc(OC[C@]34CCCN3C[C@H](F)C4)nc3c(F)c(-c4ccc(F)c5sc(N)nc45)c(C(F)(F)F)cc23)[C@H](C)C1 [Compound 199] | B (50≤percent of modification <70%) | D (percent of modification <10%) | > 20000 |
| C=CC(=O)N1CCN(c2c(C#N)c(OC[C@@]34CCCN3C[C@H](F)C4)nc3c(F)c(-c4ccc(F)c5sc(N)nc45)c(Cl)cc23)CC1 [Compound 200] | B (50≤percent of modification <70%) | D (percent of modification <10%) | 500 to 5000 |
| C=CC(=O)N1CC(N(C)c2nc(OC[C@@]34CCCN3C[C@H](OC)C4)nc3c(F)c(-c4ccc(F)c5sc(N)nc45)c(C(F)(F)F)cc23)C1 [Compound 201] | A (percent of modification ≥70%) | C (10%≤percent of modification <50%) | < 500 |
| C=C(F)C(=O)N1C[C@H](C)N(c2nc(OC[C@@]34CCCN3C[C@H](F)C4)nc3c(F)c(-c4ccc(F)c5sc(N)nc45)c(C(F)(F)F)cc23)C[C@H]1C [Compound 203] | B (50≤percent of modification <70%) | D (percent of modification <10%) | 500 to 5000 |
| C=CC(=O)N1C[C@H](C)N(c2nc(OC[C@]34CCCN3C[C@H](F)C4)nc3c(F)c(-c4ccc(F)c5sc(N)nc45)c(C(F)(F)F)cc23)C[C@H]1C [Compound 204, 1-((2R,5S)-4-(7-(2-amino-7-fluorobenzo[d]thiazol-4-yl)-8-fluoro-2-(((2R,7aR)-2-fluorotetrahydro-1H-pyrrolizin-7a(5H)-yl)methoxy)-6-(trifluoromethyl)quinazolin-4-yl)-2,5-dimethylpiperazin-1-yl)prop-2-en-1-one] | B (50≤percent of modification <70%) | C (10%≤percent of modification <50%) | < 500 |
| C=C(F)C(=O)N1C[C@H](C)N(c2nc(OC[C@]34CCCN3C[C@H](F)C4)nc3c(F)c(-c4ccc(F)c5sc(N)nc45)c(C(F)(F)F)cc23)C[C@H]1C [Compound 205] | B (50≤percent of modification <70%) | D (percent of modification <10%) | 500 to 5000 |
| C=CC(=O)N1CC(N(CC)c2nc(OC[C@]34CCCN3C[C@H](F)C4)nc3c(F)c(-c4ccc(F)c5sc(N)nc45)c(C(F)(F)F)cc23)C1 [Compound 206] | C (10%≤percent of modification <50%) | C (10%≤percent of modification <50%) | < 500 |
| C=CC(=O)N1CCN(c2nc(OC[C@@]34CCCN3C[C@H](F)C4)nc3c(F)c(-c4ccc(F)c5sc(N)nc45)c(C(F)(F)F)cc23)C[C@H]1C [Compound 207] | A (percent of modification ≥70%) | C (10%≤percent of modification <50%) | < 500 |
